The record followed here is article PMC8093974.

The assay has as its target complement factor H (UniProt P08603).

For the substance “Uromodulin (from UniProt P07911 25-614) (natural protein)”, the haemolysis rate of sheep erythrocytes in serum with anti‐cFH antibody and 3 μg exogenous cFH (50% without UMOD), UMOD 5, 10 and 20 μg is 30%.
